# Reference: patent US20240190851A1, “FURAN FUSED RING-SUBSTITUTED GLUTARIMIDE COMPOUND” (MEDSHINE DISCOVERY INC., priority 2021, published 2024)
# Amino acid sequences for entries named in this document (tags omitted).
# UniProt P10275, whole entry T878A: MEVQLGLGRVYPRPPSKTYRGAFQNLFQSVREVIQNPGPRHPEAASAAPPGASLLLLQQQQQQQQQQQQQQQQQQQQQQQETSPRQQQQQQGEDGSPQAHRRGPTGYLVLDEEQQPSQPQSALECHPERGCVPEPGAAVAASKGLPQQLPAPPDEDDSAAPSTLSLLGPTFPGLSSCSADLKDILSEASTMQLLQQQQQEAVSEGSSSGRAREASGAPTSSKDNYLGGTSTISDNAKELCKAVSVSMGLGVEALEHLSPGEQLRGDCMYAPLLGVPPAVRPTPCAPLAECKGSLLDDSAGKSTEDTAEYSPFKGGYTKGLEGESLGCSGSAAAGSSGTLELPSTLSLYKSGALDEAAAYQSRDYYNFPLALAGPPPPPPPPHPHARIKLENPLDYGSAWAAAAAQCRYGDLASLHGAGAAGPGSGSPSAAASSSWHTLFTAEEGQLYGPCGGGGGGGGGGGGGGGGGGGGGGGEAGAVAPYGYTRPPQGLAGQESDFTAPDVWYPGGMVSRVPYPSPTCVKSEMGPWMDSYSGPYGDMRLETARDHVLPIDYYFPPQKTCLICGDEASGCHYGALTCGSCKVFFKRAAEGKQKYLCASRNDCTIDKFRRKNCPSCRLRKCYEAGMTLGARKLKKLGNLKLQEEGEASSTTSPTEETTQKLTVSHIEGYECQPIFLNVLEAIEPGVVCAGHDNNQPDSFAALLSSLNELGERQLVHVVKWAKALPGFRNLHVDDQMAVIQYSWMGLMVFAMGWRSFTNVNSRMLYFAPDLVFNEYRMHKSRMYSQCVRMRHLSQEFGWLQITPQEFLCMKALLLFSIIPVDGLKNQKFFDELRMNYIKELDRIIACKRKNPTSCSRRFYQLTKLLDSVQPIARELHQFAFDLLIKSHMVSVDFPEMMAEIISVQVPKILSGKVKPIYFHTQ
# Columns and labels:
# [1] = molecular target: androgen receptor AR (Homo sapiens, UniProt P10275, T878A); assay: AR degradation in LNCaP cells by ICW method; conditions: 24 hours
# Method: Experimental purpose: To test the degradation effect of compounds on androgen receptor AR in LNCaP cells by ICW method.
# Day 1 • 1. The cell culture medium, 0.025% trypsin, and phosphate buffered saline were preheated in a 37° C. water bath. • 2. Cells digested by trypsin were centrifuged at 1000 rpm for 5 minutes. The supernatant was discarded, and then the cells were resuspended in fresh culture medium. • 3. The cells were inoculated in a COL-Coated CellCarrier-384 plate at a density of 4 k/[…]/well. • 4. The 384 cell plate inoculated with cells was placed in an ultra-clean bench for 10 minutes. • 5. The cell plate was cultured overnight in a CO2 cell incubator.
# Day 2 • 1. The compound at a concentration of 10 mM was diluted to 3 mM (3 μL+7 μL of dimethyl sulfoxide) before serial dilution. • 2. The compound was serially diluted 3-fold (4 μL+8 μL) in an Echo plate using Bravo. • 3. ZPE and HPE control wells were setup, and the ZPE control wells were dimethyl sulfoxide. • 4. The Echo plate was centrifuged at 1000 rpm for 1 minute, and then the diluted compound was transferred from the Echo plate to an intermediate plate using Echo with 200 nL/well. • 5. To the intermediate plate was added the cell culture medium using Multidrop combi with […]. • 6. The intermediate plate was shaken on a horizontal shaker for 1 minute to mix the compound well with the culture medium. • 7. The compound was transferred from the intermediate dilution plate to the cell plate using Bravo with 4 μL/well. • 8. The cell plate was shaken on the horizontal shaker for 1 minute, and centrifuged at 800 rpm for 30 seconds. • 9. The cell plate was returned to the CO2 incubator, and cultured for another 24 hours.
# Day 3 • 1. 4% paraformaldehyde was removed from the refrigerator and brought to room temperature. • 2. The cell plate was removed from the incubator. • 3. To the cell plate was directly added 4% paraformaldehyde with 40 μL/well. • 4. The plate was incubated at room temperature for 20 minutes. • 5. The culture medium was manually shaken off from the cell plate, inverted in a centrifuge, and centrifuged at 800 rpm for 7 seconds to fully remove the residual culture medium. • 6. To the cell plate was added 4% paraformaldehyde with 25 μL/well. • 7. The plate was incubated at room temperature for 30 minutes. • 8. The paraformaldehyde solution was manually shaken off from the cell plate, inverted in the centrifuge, and centrifuged at 800 rpm for 7 seconds. • 9. 0.1% Trition was added with 25 μL/well. • 10. The plate was incubated at room temperature for 10 minutes. • 11. The 0.1% Trition solution was manually shaken off from the cell plate, inverted in the centrifuge, and centrifuged at 800 rpm for 7 seconds. • 12. Intercept® (PBS) blocking buffer was added with 25 μL/well. • 13. […]
# [2] = Pharmacokinetic evaluation in rats
# Method: In this study, SD male rats were selected as experimental animals for the test compounds, and LCMS/MS method was used to quantify plasma concentrations of the test compound and the reference compound intravenously injected or orally administered to rats at different time points, so as to evaluate the pharmacokinetic profile of the test drug in rats.
# SD rats (male, Beijing Vital River).
# A clarified solution or suspension of the test compound was injected into rats via the tail vein (without fasting), or intragastrically administered to rats (without fasting). For intravenous injection, blood was collected via the jugular vein puncture at 0 h (pre-administration), 0.25 h, 0.5 h, 1 h, 2 h, 4 h, 6 h, 8 h, 24 h, and 48 h after administration, and placed in an anticoagulant tube added with heparin sodium. The collected blood sample was placed on ice, and centrifuged to separate plasma within 1 hour (centrifugation conditions: 6000 g, 3 minutes, 2 to 8° C.). For oral administration, blood was collected via the jugular vein puncture at 0 h (pre-administration), 0.25 h, 0.5 h, 1 h, 2 h, 4 h, 6 h, 8 h, 24 h, and 48 h after administration, and placed in an anticoagulant tube added with heparin sodium. The collected blood sample was placed on ice, and centrifuged to separate plasma within 1 hour (centrifugation conditions: 6000 g, 3 minutes, 2 to 8° C.). Plasma concentrations were determined by LC-MS/MS method, and relevant pharmacokinetic parameters were calculated using WinNonlin™ Version 8.2.0 (Pharsight, Mountain View, CA) pharmacokinetic software with non-compartmental model linear-log trapezoidal method.
# [3] = intravenous injection (2 mg/mL)
SMILES,DC50 [1] [nM],Dmax [1] [%],"Area under the drug-time curve (0-last) [2, 3] [µM·h]","Half-life [2, 3] [h]","Plasma clearance rate [2, 3] [mL/min/kg]",Area under the drug-time curve (0-last) ([2]; oral administration (10 mg/mL)) [µM·h],Bioavailability F ([2]; oral administration (10 mg/mL)) [%],Peak concentration ([2]; oral administration (10 mg/mL)) [nmol/L],Time to peak concentration ([2]; oral administration (10 mg/mL)) [h]
"N#Cc1ccc(O[C@H]2CC[C@H](NC(=O)c3ccc(N4CCC(CN5CCN(c6cccc7c6ccc6occ(C8CCC(=O)NC8=O)c67)CC5)CC4)nn3)CC2)cc1Cl (single isomer, unassigned) [WX017]",15.1,100,5.846,10.2,6.86,7.42,25.38,349,7.33
"N#Cc1ccc(O[C@H]2CC[C@H](NC(=O)c3ccc(N4CCC(CN5CCN(c6cccc7c6ccc6occ(C8CCC(=O)NC8=O)c67)CC5)CC4)nn3)CC2)cc1Cl (single isomer, unassigned) [WX016]",14,95.7,6.949,21.2,4.71,14.716,42.35,451,13.3
